Laboratory results from patent publication US7879571B2, “Population based assessments and means to rank the relative immunogenicity of proteins” (Danisco US Inc., priority 2003, dated 2011).

System: CD4+ T-cells
Assay: I-MUNE assay: CD4+ T-cell proliferation with dendritic cells and 15-mer peptides offset by 3 amino acids, community donors
Conditions: for Epitopes identified (in words): negative control, 87 community donors

Substance	Structure value in words	Epitopes identified (in words) (listed as human β2-microglobulin)	Epitopes identified (in words) (listed as human β-2 microglobulin)	Epitopes identified (in words) (listed as β2-microglobulin)	Epitopes identified (in words) (listed as β-2 microglobulin)	Background +/- sd (Table 5)
B2-microglobulin: human β2-microglobulin, negative control [reference compound]	low	did not identify any epitopes	no epitopes were found	None of the peptide responses were significant	no prominent epitope responses were found	–
hIFN-B: human interferon-beta	comparatively high	–	–	–	–	3.17 +/− 3.28
